Reference: PubChem BioAssay AID841 (Emory University Molecular Libraries Screening Center, 2007)
The list shows a part of the results, in another mix than the full data. Some tests of the compounds listed are not included; inactive here does not mean inactive elsewhere. Calls of active or inactive are those of the source. Rule as the data show it: active = protection mostly above about 24% (no sharp cut-off); inactive = mostly below about 26%.

Assay: blockers of measles virus-induced cell death – single point, MLSMR library, absorbance, measles RdRp inhibitor project, primary screen (AID 841)
Conditions: Measles virus-infected cells, CPE protection, at 4 µM, active compounds read high
In the case of `CC(C)N1C(=O)CC2(CCN(CCOC(=O)C(O)(c3ccccc3)c3ccccc3)CC2)C1=O`, the protection (pct of control) is reported as inactive: 3.71%. In the case of `CCN1CCCC(OC(=O)C2(O)c3ccccc3C=Cc3ccccc32)C1` (stereo not given), the protection (pct of control) is reported as inactive: 10.6%. With `CN(C)C1CCCC1OC(=O)C(O)(c1ccccc1)c1ccccc1` (stereo not given) the protection (pct of control) was inactive: 9.53%. In the case of `CN(C)c1cccc(C(=O)NCC2(N(C)C)CCCCC2)c1`, the protection (pct of control) is reported as active: 44.5%. With `O=C(OC1CN2CCC1CC2)C(CO)(c1ccccc1)c1ccccc1` (stereo not given) the protection (pct of control) was inactive: 2.66%.
